Molecular target: PD-1/PD-L1 (Homo sapiens, UniProt Q9NZQ7)
Test: PD-1/PD-L1 homogeneous time-resolved fluorescence (HTRF) binding assay
Conditions: read-out: PD-L1 IC50, 665 nm/620 nm ratio
Excerpt: Test Example 1: Detect the Inhibitory Effect of the Compound to the Binding of PD-1/PD-L1 Protein
The PD-1/PD-L1 homogeneous time-resolved fluorescence method is used to detect the binding ability of the compound with PD-L1.
PD-1/PD-L1 binding assay kit (Cisbio, Cat #63ADK000CPDEC) was chosen, which contains two proteins Tag 1-PD-L1 and Tag 2-PD-1, and two antibodies Anti-Tag1-Eu^3+ and Anti-Tag2-XL 665. The principle of detection was: Anti-tag1-Eu^3+ was used as the donor of HTRF, and Anti-Tag2-XL 665 was used as the acceptor of HTRF. When Tag 1-PD-L1 interacts with Tag 2-PD-1, the added HTRF donor and the acceptor are close to each other. […] The inhibitory effect of the compound can be determined by comparing the ratio of 665 nm/620 nm. Tag 1-PD-L1 was diluted with Diluent buffer (cat #62DLBDDF) to a working concentration of 10 nM, Tag 2-PD-1 was diluted with Diluent buffer to a working concentration of 500 nM, Anti-Tag1-Eu^3+ was diluted with detection buffer (cat #62DB1FDG) at a ratio of 1:100, Anti-Tag2-XL 665 was diluted with detection buffer at a ratio of 1:20, and the compound to be detected was diluted with diluent buffer to a final concentration of 2×. […] BioTek Synergy™ Neo2 multifunctional microplate reader was used to detect so as to provide the 665 nm/620 nm ratio. […]

Amino acid sequences for entries named in this document (tags omitted). Residues count along the entry.
UniProt Q9NZQ7, 19-238 limits assumed: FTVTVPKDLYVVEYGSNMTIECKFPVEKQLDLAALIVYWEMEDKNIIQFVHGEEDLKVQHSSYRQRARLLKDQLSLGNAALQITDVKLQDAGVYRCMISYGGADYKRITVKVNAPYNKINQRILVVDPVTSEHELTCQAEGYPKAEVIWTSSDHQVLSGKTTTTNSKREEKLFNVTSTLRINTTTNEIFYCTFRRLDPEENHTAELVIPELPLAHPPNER

`COc1nc(-c2cccc(-c3cccc(Nc4nccc5sc(CNCC(=O)O)nc45)c3Cl)c2Cl)ccc1CNC[C@@H]1CCC(=O)N1` [Compound 18, (S)-((4-((2,2′-dichloro-3′-(6-methoxy-5-((((5-carbonylpyrrolidin-2-yl)methyl)amino)methyl)pyridin-2-yl)-[1,1′-biphenyl]-3-yl)amino)thiazolo[4,5-c]pyridin-2-yl)methyl)glycine] was tested. Which IC50 did it give?
The IC50 was less than 100 nM.
